Data from ChEMBL document CHEMBL1142862, “Selective NR1/2B N-methyl-D-aspartate receptor antagonists among indole-2-carboxamides and benzimidazole-2-carboxamides” (J Med Chem, 2007).

Chains of the proteins cited; added tags and fusions are not shown.
UniProt Q00960, whole entry: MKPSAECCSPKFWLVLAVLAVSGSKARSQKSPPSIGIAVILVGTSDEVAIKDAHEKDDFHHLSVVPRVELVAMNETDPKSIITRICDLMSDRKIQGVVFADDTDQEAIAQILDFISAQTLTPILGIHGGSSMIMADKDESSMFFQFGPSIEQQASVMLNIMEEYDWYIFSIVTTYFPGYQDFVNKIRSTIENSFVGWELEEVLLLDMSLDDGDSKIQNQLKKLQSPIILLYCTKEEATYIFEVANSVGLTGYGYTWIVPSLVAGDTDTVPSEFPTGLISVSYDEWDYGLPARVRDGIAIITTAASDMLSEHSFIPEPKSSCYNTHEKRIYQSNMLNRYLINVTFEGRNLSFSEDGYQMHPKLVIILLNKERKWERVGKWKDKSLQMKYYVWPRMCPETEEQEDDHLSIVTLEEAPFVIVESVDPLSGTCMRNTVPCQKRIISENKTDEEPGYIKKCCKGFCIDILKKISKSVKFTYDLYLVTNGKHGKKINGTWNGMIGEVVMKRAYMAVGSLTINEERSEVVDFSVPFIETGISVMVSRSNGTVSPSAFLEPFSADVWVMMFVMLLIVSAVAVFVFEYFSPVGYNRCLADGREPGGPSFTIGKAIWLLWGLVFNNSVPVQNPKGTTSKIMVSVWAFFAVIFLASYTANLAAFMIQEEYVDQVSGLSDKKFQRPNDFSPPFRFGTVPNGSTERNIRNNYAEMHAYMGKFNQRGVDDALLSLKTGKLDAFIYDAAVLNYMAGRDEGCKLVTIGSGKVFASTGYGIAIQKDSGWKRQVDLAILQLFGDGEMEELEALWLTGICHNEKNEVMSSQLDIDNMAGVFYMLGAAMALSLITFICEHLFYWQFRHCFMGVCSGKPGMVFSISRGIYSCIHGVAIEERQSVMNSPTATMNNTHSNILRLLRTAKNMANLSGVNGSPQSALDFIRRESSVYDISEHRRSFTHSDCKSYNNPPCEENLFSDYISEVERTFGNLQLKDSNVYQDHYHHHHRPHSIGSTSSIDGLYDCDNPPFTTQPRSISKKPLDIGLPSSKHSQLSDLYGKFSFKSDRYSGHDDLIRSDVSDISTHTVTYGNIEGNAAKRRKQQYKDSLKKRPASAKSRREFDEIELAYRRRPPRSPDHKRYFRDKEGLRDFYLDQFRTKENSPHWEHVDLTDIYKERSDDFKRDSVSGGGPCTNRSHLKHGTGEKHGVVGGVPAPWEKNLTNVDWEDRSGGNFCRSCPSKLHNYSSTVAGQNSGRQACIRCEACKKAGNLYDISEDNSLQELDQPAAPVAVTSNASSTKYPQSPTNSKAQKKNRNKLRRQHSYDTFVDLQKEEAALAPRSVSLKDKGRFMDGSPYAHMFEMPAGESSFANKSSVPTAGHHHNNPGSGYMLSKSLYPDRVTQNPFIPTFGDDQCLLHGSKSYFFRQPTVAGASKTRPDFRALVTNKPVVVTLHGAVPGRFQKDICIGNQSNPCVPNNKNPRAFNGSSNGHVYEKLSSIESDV

Target: Glutamate receptor ionotropic, NMDA 2B (Rattus norvegicus, UniProt Q00960)
Test: Antagonist activity at NR2B NMDA receptor in Wistar rat neocortical cells assessed as inhibition of NMDA-evoked elevation of intracellular calcium concentration
Type: functional, cell-based
Procedure, shortened: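 Rat primary neocortical cultures (trypsinised cortex, poly-D-lysine coated wells, glial proliferation stopped with […], serum-free N2 medium) used after 3-10 days in vitro. Compound added (<0.1% DMSO), 5 min baseline, then 40 µM NMDA and 5 min fluorescence recording.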

Question: For O=C(/C=C/c1ccc(O)cc1)N1CCC(Cc2ccccc2)CC1, which IC50 is on record?
Answer: 131 nM
